Source: patent US10752640B2, “Compounds active towards bromodomains” (NUEVOLUTION A/S, priority 2014, dated 2020)

Molecular target: BRD4 protein (Homo sapiens, UniProt O60885)
Experiment: FRET assay, half maximal inhibitory concentration (IC50)
Details: read-out: Classification (IC50 by FRET assay); BRD4 protein 50 nM, Biotin-H4KAc4 peptide 12.5 nM; List of Classification
Protocol: The compounds were biologically evaluated by determining the half maximal inhibitory concentration (IC50) by FRET assay. The IC50 is a measure of the effectiveness of a substance in inhibiting a specific biological or biochemical function.
For IC50 determinations, dose-response curves were generated, using a top concentration of 50 μM compound in 12.5% DMSO, followed by 10-fold dilutions in 12.5% DMSO. The composition of the reaction buffer was 50 mM HEPES, pH 7.5; 100 mM NaCl, 0.05% CHAPS.
The reaction was run in a final volume of 25 μl. The BRD4 protein (16.5 μl) was added to wells of 384w white Optiplates (Perkin Elmer) (50 nM final concentration) and 1 μl of compound dilution of DMSO control. Incubation time was 30 minutes at room temperature. In the next step, 2.5 μl Biotin-H4KAc4 peptide (Millipore 13-379) was added to the wells (final concentration was 12.5 nM), and the plates were incubated for 30 minutes at room temperature. […] The plates were incubated for one hour prior to reading on an Envision reader (Perkin Elmer)
Data was analyzed using GraphPad Prism, and IC50 data was obtained using non-linear regression curve fit using log(inhibitor) vs response (variable slope). […]

| SMILES | IC50 [µM] |
| --- | --- |
| COc1cc(O)nc2ccc(NC(=O)c3cc(CN4CCN(C)CC4)ccc3N3CCCC3)cc12 [Compound-98, N-(2-hydroxy-4-methoxy-6-quinolyl)-5-[(4-methylpiperazin-1-yl)methyl]-2-pyrrolidin-1-yl-benzamide] | < 0.2 |
| Cc1cc(O)nc2ccc(NC(=O)c3cnccc3N3CCCC3)cc12 [Compound-124, N-(2-hydroxy-4-methyl-6-quinolyl)-4-pyrrolidin-1-yl-pyridine-3-carboxamide] | < 0.2 |
